These results are taken from ChEMBL document CHEMBL2311517, “Novel route to chaetomellic acid A and analogues: serendipitous discovery of a more competent FTase inhibitor” (Bioorg Med Chem, 2013).

The assay relates to Saccharomyces cerevisiae. Briefly: Ratio of chaetomellic acid A IC50 to compound IC50 for yeast farnesyltransferase using dansyl-GCVIA as substrate preincubated for 5 mins measured over 300 secs by continuous fluorescence assay.

Each structure is given as a SMILES string.

With `CCCCSCCCCCCCCC/C(C(=O)O)=C(\C)C(=O)O`, the Ratio IC50 was 5.
